Laboratory results as given in patent US20080145918A1, “Method for the Detoxification of a Hazardous Compound” (published 2008).

Test system: Artemia salina
Assay: Accumulation test and arsenic content test, use of only artemia (Reference Example)
Conditions: artemia bred 1 day, artificial seawater 25° C.
[1] = Addition of inorganic arsenic (iAs 10 ppm), no glutathione
[2] = Both inorganic arsenic (10 ppm) and glutathione (10 ppm)

Structure (SMILES) | Arsenic species content in artemia, dry weight [1] [μgAs/g dry] | Arsenic species content in artemia, dry weight [2] [μgAs/g dry]
C[As](C)(=O)O | 4.512 | 4.375
C[As](=O)(O)O | 0 | 0
